How the values were obtained:
[1] = Foaming capability of individual surfactant components admixed with water and agitated; format: physicochemical
Experimental: The foaming ability was determined by a numerical score, 1 representing an excellent foamer and 5 representing a poor foamer

EpiOral ORL-200 model = test: EpiOral in Vitro Irritation Test Method (EpiOral ORL-200 model); settings: time at which 50% of cells are viable, test terminated at 240 minutes

Substance: sodium cocoyl glutamate
- foaming ability as compared to sodium lauryl sulfate ([1]; individual surfactant components, in words): significantly poorer
- Foaming ability ([1]; numerical score, 1 representing an excellent foamer and 5 a poor foamer): 5
- ET-50 Time (EpiOral ORL-200 model; surfactant component 1 wt % in water): >240 min
- ET-50 Time (EpiOral ORL-200 model; surfactant component 2 wt % in water): >240 min

From patent US8597618B1, “Dentifrice composition” (Toms's of Maine, Inc., priority 2012, dated 2013)
